{"source": "patent US20250074890A1", "about": "“CYANOPYRIDINE AND CYANOPYRIMIDINE BCL6 DEGRADERS” (DANA-FARBER CANCER INSTITUTE, INC., priority 2021, published 2025)", "tested_on": "Su-DHL-4 cells", "experiment": "CellTiter-Glo cell proliferation, BCL6 degrader with EZH2 inhibitors", "format": "cell-based", "conditions": "EZH2 inhibitor at 480 nM added to BCL6 degrader (compound 1), 60% growth inhibition", "procedure": "Enhancer of zeste homolog 2 (EZH2) is a member of the polycomb repressive complex 2 (PRC2) that methylates histone 3 lysine 27, a mark that is associated with gene repression.\nTo ensure HiBiT signal decrease was due to BCL6 degradation and not from dying cells, CellTiter-Glo® (CTG, Promega™) was performed on the same number of cells that were treated for 24 hours with BCL6 degraders. To study the anti-proliferative effects of BCL6 degraders and its synergistic effect with EZH2 inhibitors, Su-DHL-4 and other DLBCL cells were treated with the compounds at DC99, DC75, DC50, or 1 μM followed by 5 days of culture, at which point CTG values and/or Caspase3/7 activities were measured as percent DMSO treated."}
{"smiles": "CCN(c1cc(-c2ccc(CN3CCOCC3)cc2)cc(C(=O)NCc2c(C)cc(C)[nH]c2=O)c1C)C1CCOCC1", "note": "[Taz, Tazemetostat, reference compound]", "values": [{"measurement": "reduction of BCL6 degrader dose requirement to achieve GI60", "result": "around 4.3 fold"}]}
